Data from PubChem BioAssay AID504648 (National Center for Advancing Translational Sciences (NCATS), 2011).
This is a selection; strong and weak results do not stand in their true shares. Records with an inconclusive call do not appear. Active and inactive are the calls of the source. Calls follow the shape of the dose curve; as a rule, active = well fitted inhibition curve with a large enough effect; inconclusive = small, poorly fitted or top-dose-only effect, or effect the other way, or another doubt; inactive = no such curve, though single readings can be large or run the other way.

Assay: Nrf2 qHTS screen for inhibitors: counterscreen for cytotoxicity
Settings: A549 ARE-Fluc cells, CellTiter-Fluor viability, 18-24 h; at 46 µM (top of the series)
Excerpt: NIH Molecular Libraries Probe Production Network [MLPCN]
NIH Chemical Genomics Center [NCGC]
Assay Provider: Shyam Biswal, Johns Hopkins University
Nrf2 is a transcription factor that maintains cellular redox homoestasis and protects cells from xenobiotics. Nrf2 binds to the antioxidant response element (ARE) to induce gene expression of a broad spectrum of genes that encode for antioxidants. […] Finding a small molecule that act as an inhibitor of Nrf2 function would represent a novel therapeutic target that could lead to improvement in survival of patients undergoing chemo- and/or radio- therapy.
So here we implemented a counterscreen to weed out the cytotoxic compounds.
1. Shibata, T., et al., Genetic Alteration of Keap1 Confers Constitutive Nrf2 Activation and Resistance to Chemotherapy in Gallbladder Cancer. Gastroenterology, 2008.
2. Sjoblom, T., et al., The consensus coding sequences of human breast and colorectal cancers. Science, 2006. 314(5797): p. 268-74.
NCGC Assay Protocol Summary:
A concentration-response assay was performed with A549 ARE_Fluc cells which are suspended in 5% FBS OPTI-MEM. Five uL were dispensed into 1536-well white TC-treated plate using the Kalypsys dispenser to achieve a density of 5000 cells/well in all columns except column 1. The plate is incubated at 37deg C at 5% CO2 for 2 hours before 23 nL of compounds are added with the Kalypsys pin tool equipped with a 1,536-pin array containing 10-nL slotted pins (FP1S10, 0.457-mm diameter, 50.8 mm long; V&P Scientific). The control compounds Budesonide and Staurosporine are both added at a concentration of 2mM and Budesonide is also added as a 1:10 titration, starting at 200uM, to achieve dose-response. After an 18-24 hour incubation at 37deg C at 5% CO2, 5ul of medium is added to column 1. Afterwards 1ul of 5x of CellTiter-Fluor (Promega) is added to every well. The plate is then incubated at 37deg C at 5% CO2 for 30 minutes before they are read on the ViewLux (Perkin Elmer) for a fluorescent read Ex=405(10)/Em=525(10) for a 3 second exposure, 2x binning, and high gain. Then 3 uL of 3x BugLite is dispensed into all wells and the plate is incubated at ambient room temperature for 15 minutes. Afterwards another ViewLux read is performed using the clear filter to get a luminescent read with the settings of 40 second exposure, 2x binning, and high gain. Cytotoxicity is assessed through the first fluorescent read and then biochemical activity against Nrf2 is measured in the luminescent read.
% is scaled to controls: 0 for no effect and ±100 for the full control effect.

**Q.** Which activity change, negative = cytotoxicity does the source give for `CN1CCCCC1COC(=O)C1(O)c2ccccc2CCc2ccccc21` (stereo not drawn) here?
**A.** inactive: -19%

**Q.** Which activity change, negative = cytotoxicity does the source give for `CCN(CC)CCCOC(=O)C(O)(c1ccccc1)c1ccccc1` here?
**A.** inactive: 9.91%

**Q.** Which activity change, negative = cytotoxicity does the source give for `O=C(OCCCN1CCCC1)C(O)(c1ccccc1)C1CCCCC1` (stereo not drawn) here?
**A.** inactive: -0.0421%

**Q.** Which activity change, negative = cytotoxicity does the source give for `CCN(CC)CC(O)COC(=O)C(O)(c1ccccc1)C1CCCCC1` (stereo not drawn) here?
**A.** inactive: -3.41%

**Q.** Which activity change, negative = cytotoxicity does the source give for `CN(C)CCOC(=O)C(O)(c1ccccc1)C1CCCC1` (stereo not drawn) here?
**A.** inactive: -5.22%

**Q.** Which activity change, negative = cytotoxicity does the source give for `O=C(OCCN1CCN(CCOCc2ccccc2)CC1)C(O)(c1ccccc1)c1ccccc1` here?
**A.** inactive: -11.6%

**Q.** For `CCN(CC)CCCOC(=O)C(O)(c1ccccc1)C1CCCCC1` (stereo not drawn), which activity change, negative = cytotoxicity is on record?
**A.** inactive: -0.681%

**Q.** Which activity change, negative = cytotoxicity does the source give for `O=[N+]([O-])c1ccc(OP2(=O)COCCO2)cc1` (stereo not drawn) here?
**A.** inactive: 8.08%
